Read-outs that look alike come from different tables or passages of the source.
Columns and labels:
hKLK7 = hKLK7 (Homo sapiens, UniProt P49862); test: Ki [nM]
Text: Table printed on a drawing sheet, Figure 3b (continued)
(§1) Head of the field: Ki [nM]
(§2) (a) Sequences found after selections against hKLK5. (b) Sequences found after selections against hKLK7.
First copying reader's note: Continued from the sheet before; the sequences are printed in three consensus groups (rows 2-6, 7-15, 16-19) under a drawn Br-CH2-C(=O)-CH2-Br linker, and several residues on dark shading cannot be read in the scan.`
Where the first naming reader finds the target: description_of_the_figure: (b) Sequences found after selections against hKLK7.

Amino acid sequences for entries named in this document (tags omitted). Residues count along the entry.
UniProt P49862, 30-253 limits assumed: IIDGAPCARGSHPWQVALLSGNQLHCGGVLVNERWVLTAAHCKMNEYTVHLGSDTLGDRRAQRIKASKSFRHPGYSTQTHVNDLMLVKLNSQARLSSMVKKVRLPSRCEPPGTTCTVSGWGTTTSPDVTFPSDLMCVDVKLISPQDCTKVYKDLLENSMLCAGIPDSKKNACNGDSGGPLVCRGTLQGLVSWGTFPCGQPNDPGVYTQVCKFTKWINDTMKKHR
UniProt Q9Y337, 23-293 limits assumed: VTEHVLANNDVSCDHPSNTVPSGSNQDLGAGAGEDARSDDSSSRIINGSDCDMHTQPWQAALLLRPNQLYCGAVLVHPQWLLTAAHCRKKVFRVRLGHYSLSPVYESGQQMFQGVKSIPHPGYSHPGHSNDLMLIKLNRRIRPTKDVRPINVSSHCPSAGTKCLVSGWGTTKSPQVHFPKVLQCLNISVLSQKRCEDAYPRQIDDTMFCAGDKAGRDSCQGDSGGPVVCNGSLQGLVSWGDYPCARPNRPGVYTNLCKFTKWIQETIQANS

hKLK5 [1] = molecular target: T1, hKLK5 (Homo sapiens, UniProt Q9Y337); test: Ki [nM]
Text: Table printed on a drawing sheet, Figure 3a (continued)
as §1, §2
First copying reader's note: Continued from the sheet before; the linker used for cyclization is drawn above the table as a structure (Br-CH2-C(=O)-CH2-Br), and each residue of the 18-residue sequence stands in its own column.

hKLK5 [2] = molecular target: T1, hKLK5

Substance | Ki (hKLK7) | Ki (hKLK5 [1]) | also measured
Q C ? I T Y Q F C T H D R Y G C C S [compound 010] | 96 nM |  | 
F C L W P W C Q P P E A C P S Q C E [compound 012] | > 1000 nM |  | 
M C S R Q W D P S L C C P Q R T C P [compound 006] |  | 24 nM | 
G C T R Q V C Q Q T P A C P S A C N [compound 001] |  |  | Ki (hKLK5 [2]): 7 nM
G C T R Q W P C D S V P G S C T C V [compound 004] |  | 2.7 nM | 
A C T R E Y N P Q C A N P Q C L C H [compound 005] |  | 28 nM | 

Source: US20220267379A1, “NOVEL INHIBITORS OF […] AND USES THEREOF” (Ecole Polytechnique Federale de Lausanne (EPFL), priority 2019, published 2022)
